{
  "source": "paper PMC8939909",
  "about": "(Journal of medicinal chemistry, 2021)",
  "key": {"[1]": {"tested_on": "panel of PTPs (class I tyrosine-specific and dual-specific PTPs)"}, "human LMPTP-A": {"biological_target": "T1, human LMPTP-A (Homo sapiens, UniProt P24666)", "T1 sequence (P24666 1-158)": "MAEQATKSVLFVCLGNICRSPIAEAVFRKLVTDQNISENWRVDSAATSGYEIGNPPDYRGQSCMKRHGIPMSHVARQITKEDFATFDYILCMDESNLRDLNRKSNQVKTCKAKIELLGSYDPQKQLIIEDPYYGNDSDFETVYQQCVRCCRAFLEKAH", "assay": "LMPTP biochemical inhibition assay", "conditions": "nitrogen incorporation in the benzyl ring"}},
  "data": [
    {"smiles": "Cc1ccccc1-c1nc2c(N)ncn(Cc3c(Cl)cccc3Cl)c-2n1", "note": "[5d]", "values": [
      {"measurement": "selectivity for LMPTP over all other PTPs tested", "setting": "[1]", "value": "> 1,000 X"}
    ]},
    {"smiles": "Nc1ncn(Cc2c(Cl)cncc2Cl)c2ncnc1-2", "note": "[6g]", "values": [
      {"measurement": "fold boost in potency (LMPTP)", "setting": "human LMPTP-A", "value": 3, "unit": "fold"},
      {"measurement": "selectivity for LMPTP, in words", "setting": "[1]", "value": "high selectivity"}
    ]}
  ]
}
